These results are taken from ChEMBL document CHEMBL1126581 (J Med Chem, 1993).

The chains behind the UniProt entries cited, without tags or fusion partners. Residues count along the entry.
UniProt P00747, 97-580 limits assumed: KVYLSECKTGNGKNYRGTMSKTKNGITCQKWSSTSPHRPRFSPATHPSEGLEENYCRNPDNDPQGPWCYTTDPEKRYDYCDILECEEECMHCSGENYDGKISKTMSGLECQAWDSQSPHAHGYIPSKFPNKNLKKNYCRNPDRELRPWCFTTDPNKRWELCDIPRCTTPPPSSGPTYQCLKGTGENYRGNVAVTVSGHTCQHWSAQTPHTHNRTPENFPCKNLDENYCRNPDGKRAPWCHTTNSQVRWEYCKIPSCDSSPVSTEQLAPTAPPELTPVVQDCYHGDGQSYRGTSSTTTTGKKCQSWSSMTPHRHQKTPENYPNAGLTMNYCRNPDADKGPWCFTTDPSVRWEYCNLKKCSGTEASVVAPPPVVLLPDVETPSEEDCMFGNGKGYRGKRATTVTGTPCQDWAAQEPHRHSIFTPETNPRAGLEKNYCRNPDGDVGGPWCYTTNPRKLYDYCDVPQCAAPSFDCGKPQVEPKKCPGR
UniProt P00747, 581-810 limits assumed: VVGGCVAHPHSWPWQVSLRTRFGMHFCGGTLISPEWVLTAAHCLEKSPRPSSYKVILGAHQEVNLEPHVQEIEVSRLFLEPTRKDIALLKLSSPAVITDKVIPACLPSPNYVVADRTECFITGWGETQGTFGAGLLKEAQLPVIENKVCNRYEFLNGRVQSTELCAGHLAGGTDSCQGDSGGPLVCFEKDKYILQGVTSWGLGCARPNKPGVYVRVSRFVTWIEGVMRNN

The experiment has as its target Plasminogen (Homo sapiens, UniProt P00747). Nature of the experiment: Inhibitory activity against plasmin. The method in brief: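 Amidolytic assay at 25 °C in 0.1 M Tris-HCl pH 7.4. Human plasmin (270 ng/mL) with substrate H-D-Val-Leu-Lys-pNA (0.278 mg/mL). p-Nitroaniline release read at 405 nm. Peptide preincubated 5 min. Varying peptide concentrations gave concentration-response curves. IC50 taken as the concentration giving 50% inhibition relative to blank control.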

For `N=C(N)NCCC[C@@H](C=O)NC(=O)[C@@H]1CCCN1C(=O)[C@H]1Cc2ccccc2CN1`, the IC50 (in general, the concentration that inhibits the measured activity by half) worked out at 370 nM.
